# AlphaSeq binding of Ab-14 light chain variants to a spike HR2 peptide

Data: MIT Lincoln Laboratory AlphaSeq set, Li et al. 2023, doi:10.1038/s41467-023-39022-2, as distributed in FLAb.

Binding partner: SARS-CoV-2 spike HR2 peptide, sequence PDVDLGDISGINAS.

Ab-14 is the parent antibody, in scFv form: VH, then a (GGGGS)3 linker, then VL. The heavy chain is unchanged in all variants.
VH: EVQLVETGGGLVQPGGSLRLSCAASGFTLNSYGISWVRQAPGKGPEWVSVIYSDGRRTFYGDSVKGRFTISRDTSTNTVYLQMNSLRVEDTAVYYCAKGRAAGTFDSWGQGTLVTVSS
VL: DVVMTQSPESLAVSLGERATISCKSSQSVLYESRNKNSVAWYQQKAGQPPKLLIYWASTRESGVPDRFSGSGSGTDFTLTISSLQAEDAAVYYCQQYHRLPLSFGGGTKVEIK

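The parent was found by panning a naive human phage display library on the peptide. The variants were designed computationally from a first round of random CDR variants and then made and measured. Their group label is 14L_En_Gibbs (En: ensemble of fine-tuned language models; Gibbs: Gibbs sampling). The assay is AlphaSeq: two haploid yeast populations carry antibody and antigen on their surface. Binding brings cells together so that they mate, and sequencing counts the barcode pairs among the diploids. Each replicate has its own calibration line, from reference interactions of the BCL2 family. There are six technical replicates.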

The parent's light chain CDRs are KSSQSVLYESRNKNSVA, WASTRES, QQYHRLPLS; each variant's own CDRs replace them letter for letter. The read-out is the apparent dissociation constant on a log10 scale (nM): the lower, the stronger. A pair that was not seen in that replicate is written "nd"; this usually means weak binding, but a binder can also be missed. In the paper, a design with two or fewer of six values counts as a poor binder. Of ten entries with the parent sequence, four were seen in most replicates (averages 0.34 to 2.37), three in one and three in none, so single entries are noisy. Empty control strains, which show no peptide, gave a signal in 4% of pairings with all light chain designs; the median was 2.64 and 95% of these signals were weaker than 1.59. No background was subtracted. The control count says in how many pairings with the empty strains this scFv gave a signal, with their mean in brackets. The range of this assay differs from that of the first round, and the authors advise against merging the two.

CDR-L1,CDR-L2,CDR-L3,log10 Kd (nM) by replicate,control signals
QITFVQQYDAPNTYNVA,DATVSGR,QQYSQLPLI,1.29 / 1.44 / 1.89 / 2.40 / 1.13 / 1.58,0 of 18
QVQYHPGESLRHASAIA,DVNIKVM,QQYSRLPLA,0.99 / 0.34 / 0.37 / 0.71 / 0.56 / 1.12,0 of 18
HISDMLGGDRKIAHNIA,NTGVTSR,QQYSRLPLI,0.43 / 0.37 / 0.12 / 0.26 / 0.50 / 0.41,1 of 18 (2.65)
HSNGNLVMGERNKNHVA,STDVRAS,QQYSRLPLT,0.78 / 0.64 / 0.56 / 0.64 / 0.30 / 1.05,1 of 18 (2.28)
NISYLQALSTNSVNNVA,QASVRAP,QYYQRLPLC,0.45 / 0.32 / 0.14 / 0.39 / 0.47 / 0.53,1 of 18 (2.92)
QFDLFMNYQGMQNAAIA,GATNRHT,QQYQKLPLS,1.34 / 0.45 / 0.65 / 0.93 / 0.48 / 0.86,0 of 18
HFSQETMEFMSQNKAIA,EVTTTMT,QQYARLPFI,0.68 / 0.66 / 0.77 / 0.43 / 0.76 / 0.72,1 of 18 (3.05)
YIDQASMTENDKGNSIA,EENHKYN,QQYFQLPLI,1.10 / nd / nd / 1.85 / 0.70 / nd,1 of 18 (2.26)
MLDNCQEGYYQKNNNVA,EMNARMY,QQYGRLPLM,1.34 / 1.83 / 0.92 / 1.51 / 1.10 / 1.38,0 of 18
RITHNQLDYKNREANIA,HESMRLV,QQYSQLPLT,1.27 / 0.85 / 0.43 / 0.16 / 0.43 / 1.15,0 of 18
KLVGDMQEDKNPSENIA,EMSSVEQ,QQYSRLPLE,nd / nd / nd / 3.23 / 3.43 / nd,1 of 18 (3.04)
KMTKAEQSIGSHQANIA,DSNKITD,QQYYRLPLT,1.40 / 0.78 / nd / 0.65 / 0.77 / 1.26,0 of 18
NLNTEYVTGTSNWNNIA,HGSMVEA,QQYFQLPIQ,0.68 / 0.69 / 0.49 / 0.51 / 0.79 / 0.75,1 of 18 (2.23)
KVDDSMVEWDANQSQVA,DHAEAQH,QQYDRLPLS,2.15 / 2.11 / 1.46 / 2.08 / 1.87 / 2.32,0 of 18
SLSEMEAGWDAANKSIA,ASILMME,QQYHRLPLA,nd / 1.41 / nd / 2.92 / nd / nd,0 of 18
QFFSRFGQLTEISQAVA,DATEVAD,QQYMHLPLT,0.75 / 0.74 / 0.68 / 0.10 / 0.79 / 1.32,0 of 18
SCTSEMDQQQEQYNSVA,GVQKTAD,QQYGRLPLS,1.28 / 1.50 / 1.14 / 1.56 / 1.28 / 1.41,0 of 18
MFSYNLHDMGANKHSVA,DMNKVTG,QDYHRLPLS,0.82 / 0.63 / 0.91 / 0.13 / 0.35 / 1.15,1 of 18 (2.24)
KFAQGIYEPWRHSHNIA,EASHVCD,QQYARLPLE,0.44 / 0.53 / 0.39 / 0.33 / 0.51 / 0.33,0 of 18
QIFFDDFEYGIESQNIA,QGSMREV,QQYARLPLV,0.82 / 0.82 / 0.62 / 0.55 / 0.59 / 0.83,1 of 18 (1.85)
HLLYAFNTGSLYDNNVA,EGETVLD,QQYFRLPIT,nd / nd / nd / nd / nd / nd,0 of 18
KITLIFSNKGNQRHSVA,NAETLAH,QQYYRLPFL,nd / 1.87 / nd / nd / nd / nd,2 of 18 (1.38)
RLSNHVYDRQGIQHSVA,QDAERAV,QSYDRLPLS,1.63 / 1.65 / 1.91 / 1.90 / 2.01 / 2.02,1 of 18 (2.90)
TLLYGVTEAAKPGKAIA,NNEERAQ,QQYFRLPLS,0.40 / 0.37 / nd / -0.30 / 0.07 / 0.47,0 of 18
QIQGKLQEGGNQGANVA,QGVESKN,QQYYRLPLT,0.84 / 1.03 / 0.61 / 0.74 / 0.81 / 0.77,0 of 18
KLDSAEQHGTNQNSAMA,SASVSTQ,QQYSRLPLS,nd / 1.47 / 1.39 / 1.91 / 0.86 / 1.28,0 of 18
KLVQPDDNDNQDMRNVA,DENTLGQ,QQYNRLPLG,0.73 / 0.78 / 0.84 / 0.71 / 1.81 / 1.00,3 of 18 (1.83)
QLEWYNSTATAAKNSVA,GVEHRMN,QQYMRLPLF,0.36 / 0.84 / 0.80 / 0.55 / 0.64 / 1.17,0 of 18
RISIPSDYYMENRSSIA,EMTVKEM,QQYQKLPLA,nd / nd / 1.27 / 1.02 / nd / nd,0 of 18
QLAVNRLMEYTMNDAIA,GKTLRVD,QQYARLPLS,0.05 / -0.28 / -0.14 / -0.20 / -0.17 / -0.13,0 of 18
SLSESEREMDSHEQNIA,DGTEHMR,QQYFQLPLH,2.70 / 1.59 / 1.59 / 1.56 / 1.80 / 1.87,1 of 18 (2.24)
IIAENSDDLTEKQNSIA,ETSQVTQ,QQYHLLPLA,nd / nd / nd / nd / nd / nd,1 of 18 (2.52)
MFSYNLHDMGANKHSVA,EMNKVTG,QDYHRLPLS,nd / 2.15 / 2.10 / 3.66 / 2.62 / nd,0 of 18
KIDGQRSYDAGRERAIA,DVTIRFW,QQYARLPLL,1.74 / 1.61 / 1.13 / 1.20 / 1.63 / 1.50,2 of 18 (3.17)

The last 6 entries again:

| CDR-L1 | CDR-L2 | CDR-L3 | log10 Kd (nM) by replicate | control signals |
|---|---|---|---|---|
| RISIPSDYYMENRSSIA | EMTVKEM | QQYQKLPLA | nd / nd / 1.27 / 1.02 / nd / nd | 0 of 18 |
| QLAVNRLMEYTMNDAIA | GKTLRVD | QQYARLPLS | 0.05 / -0.28 / -0.14 / -0.20 / -0.17 / -0.13 | 0 of 18 |
| SLSESEREMDSHEQNIA | DGTEHMR | QQYFQLPLH | 2.70 / 1.59 / 1.59 / 1.56 / 1.80 / 1.87 | 1 of 18 (2.24) |
| IIAENSDDLTEKQNSIA | ETSQVTQ | QQYHLLPLA | nd / nd / nd / nd / nd / nd | 1 of 18 (2.52) |
| MFSYNLHDMGANKHSVA | EMNKVTG | QDYHRLPLS | nd / 2.15 / 2.10 / 3.66 / 2.62 / nd | 0 of 18 |
| KIDGQRSYDAGRERAIA | DVTIRFW | QQYARLPLL | 1.74 / 1.61 / 1.13 / 1.20 / 1.63 / 1.50 | 2 of 18 (3.17) |